According to patent US11833120B2, “Binding protein drug conjugates comprising anthracycline derivatives” (priority 2014, dated 2023):

Experiments:
[1] = system: L428, a Hodgkin's lymphoma cell line expressing low to moderate levels of CD30; experiment: In vitro cytotoxicity assay (CellTiter-Glo) on L428; assay type: cell-based, human; conditions: CD30 LO L428 cells, 4 days, up to 20 μg/ml
Description: Cytotoxicity of Brentuximab-PNU-EDA-Gly5 was investigated using Karpas-299, a non-Hodgkin's lymphoma cell line expressing high levels of CD30, and L428, a Hodgkin's lymphoma cell line expressing low to moderate levels of CD30 (FIGS. 4A and 4B). […] For this, cells were plated on 96-well plates in 100 μl RPMI/10% FCS at a density of 10^4 cells per well and grown at 37° C. in a humidified incubator at 5% CO2 atmosphere. After one day incubation, 25 μl medium was carefully removed from each well and replaced by 25 μl of 3.5-fold serial dilutions of each ADC in growth medium, resulting in final ADC concentrations ranging from 20 μg/ml to 0.25 ng/ml. Each dilution was done in duplicate. After 4 additional days, plates were removed from the incubator and equilibrated to room temperature. After approximately 30 minutes, 100 μl CellTiter-Glo® Luminescent Solution (Promega, Cat. No G7570) was added to each well and, after shaking the plates at 450 rpm for 5 min followed by a 10 min incubation without shaking, luminescence was measured on a Tecan Infinity F200 with an integration time of 1 second per well. […]

[2] = system: Karpas-299, a non-Hodgkin's lymphoma cell line expressing high levels of CD30; experiment: In vitro cytotoxicity assay (CellTiter-Glo) on Karpas-299; assay type: cell-based, human; conditions: Karpas-299 cells, HER-2 negative, up to 20 μg/ml
[3] = system: SKBR3 cells, a human breast cancer cell line overexpressing HER-2; experiment: In vitro cytotoxicity assay (CellTiter-Glo) on SKBR3; assay type: cell-based; conditions: HER-2-overexpressing SKBR3 cells, 4 days with ADC
Description: Cytotoxicity of Brentuximab-PNU-EDA-Gly5 was investigated using Karpas-299, a non-Hodgkin's lymphoma cell line expressing high levels of CD30, and L428, a Hodgkin's lymphoma cell line expressing low to moderate levels of CD30 (FIGS. 4A and 4B). […] For this, cells were plated on 96-well plates in 100 μl RPMI/10% FCS at a density of 10^4 cells per well and grown at 37° C. in a humidified incubator at 5% CO2 atmosphere. After one day incubation, 25 μl medium was carefully removed from each well and replaced by 25 μl of 3.5-fold serial dilutions of each ADC in growth medium, resulting in final ADC concentrations ranging from 20 μg/ml to 0.25 ng/ml. Each dilution was done in duplicate. After 4 additional days, plates were removed from the incubator and equilibrated to room temperature. After approximately 30 minutes, 100 μl CellTiter-Glo® Luminescent Solution (Promega, Cat. No G7570) was added to each well and, after shaking the plates at 450 rpm for 5 min followed by a 10 min incubation without shaking, luminescence was measured on a Tecan Infinity F200 with an integration time of 1 second per well.
For this, cells were plated on 96 well plates in 100 μl DMEM/10% FCS at a density of 10^4 cells per well and assays were performed exactly as described above. […]

[4] = system: HER-2-negative EMT6 cells; experiment: In vivo efficacy control, orthotopic HER-2-negative EMT6 tumors; parameters: species or system Balb/c mice; conditions: 1 mg/kg i.v. on days 13 and 20, mice bearing HER-2-negative tumors
Description: For this, 10^6 EMT6 mouse breast cancer cells expressing human HER-2 (Example 6), previously determined to be suitable for in vivo growth, were implanted into the right mammary fat pads of female Balb/c mice. In addition, control animals were implanted with HER-2-negative EMT6 cells. In the following, primary tumor volumes were measured by calipering. After 13 days, when a mean tumor volume of 100-150 mm^3 was reached, tumor-bearing animals were randomized into groups of 6 animals each according to tumor sizes. […] Tumor sizes were monitored by calipering and animals whose tumor volume reached 1000-1500 mm^3 were terminated (FIGS. 10A-10D).
FIGS. 10A-D: In vivo evaluation of HER-2-specific ADCs in an immunocompetent orthotopic mouse model of HER2-positive breast cancer. EMT6 mouse breast cancer cells expressing human HER-2 (FIGS. 10A, 10C, 10D) or irrelevant antigen ROR-1 were grown in the mammary fat pads of Balb/c mice. […] Tumor growth was monitored until animals had to be sacrificed due to ethical reasons.

Row | Substance | cell killing (in words) [1] | specific cell killing (in words) [2] | EC50 of cell killing [3] | effect on tumor growth (in words) [4]
1 | Kadcyla: commercially available HER-2-specific Trastuzumab-DM1 conjugate, maleimide linker containing | no specific cell killing and was ineffective on either cell line | no specific cell killing and was ineffective on either cell line | 0.0237 µg/mL | –
2 | Trastuzumab-PNU-EDA-Gly5 | – | – | 0.0048 µg/mL | did not lead to tumor regression
